The record followed here is article PMC9209526 (Nature Communications, 2022).

By UniProt entry, the sequences of proteins in these tests, tags left out. Residues count along the entry.
UniProt P00519, 229-512: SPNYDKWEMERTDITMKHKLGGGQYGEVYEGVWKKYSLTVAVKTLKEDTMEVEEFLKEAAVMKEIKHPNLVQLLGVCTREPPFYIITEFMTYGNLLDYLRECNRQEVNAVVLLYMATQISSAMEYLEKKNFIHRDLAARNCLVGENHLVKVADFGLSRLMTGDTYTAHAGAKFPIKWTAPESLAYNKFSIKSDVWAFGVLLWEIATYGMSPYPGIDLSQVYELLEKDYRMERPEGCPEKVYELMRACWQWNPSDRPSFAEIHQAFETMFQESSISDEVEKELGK

Read-outs that look alike come from different tables or passages of the source.

This experiment has as its target N4posAbl (Abl kinase domain with N-terminal KRKKSGG tag) (Homo sapiens, UniProt P00519). Put plainly: ClyA-AS nanopore tweezers single-channel current recording: ligand binding to N4posAbl. The conditions noted are these: pH 7.5.

Broadly, the Kd is the constant that tells how readily two partners part at equilibrium. Take ATP: the Kd reads like this: (read-out: KD of ATP, S1a binding mode) 81.6 ± 17.9 µM; (read-out: KD of ATP, S1d binding mode) 113 ± 25.3 µM.
